This test addresses Sodium-dependent serotonin transporter (Homo sapiens, UniProt P31645). As to the kind of experiment: Ratio of IC50 value against Serotonin transporter to that of Dopamine transporter.

Sequences of proteins named here, by UniProt entry; tags and fusion partners are left off.
UniProt P31645, whole entry, looked up: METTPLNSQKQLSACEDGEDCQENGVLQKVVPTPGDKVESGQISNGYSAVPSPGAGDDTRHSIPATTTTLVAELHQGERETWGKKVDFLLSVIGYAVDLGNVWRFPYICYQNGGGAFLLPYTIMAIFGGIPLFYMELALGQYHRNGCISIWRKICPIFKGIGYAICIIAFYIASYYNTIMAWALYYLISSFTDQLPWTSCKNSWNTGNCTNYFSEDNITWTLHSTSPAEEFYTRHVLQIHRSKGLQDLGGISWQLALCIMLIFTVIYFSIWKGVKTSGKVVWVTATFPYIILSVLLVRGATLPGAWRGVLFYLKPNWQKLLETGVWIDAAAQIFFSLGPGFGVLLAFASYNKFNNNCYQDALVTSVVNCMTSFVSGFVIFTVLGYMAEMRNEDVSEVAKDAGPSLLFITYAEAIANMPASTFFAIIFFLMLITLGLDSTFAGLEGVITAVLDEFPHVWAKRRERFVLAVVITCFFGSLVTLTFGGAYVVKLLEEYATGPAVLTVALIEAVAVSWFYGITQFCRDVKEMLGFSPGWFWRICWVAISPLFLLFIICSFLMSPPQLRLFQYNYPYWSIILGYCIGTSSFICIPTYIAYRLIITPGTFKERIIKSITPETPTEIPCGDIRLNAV

The structures appear in SMILES notation.

As to `Fc1ccc(C(OCCC2CCN(Cc3ccc4ccccc4c3)CC2)c2ccc(F)cc2)cc1`, the Ratio is 38.

Source of the values: ChEMBL document CHEMBL1136002, “Piperidine analogues of 1-[2-[bis(4-fluorophenyl)methoxy]ethyl]-4-(3-phenylpropyl)piperazine (GBR 12909): high affinity ligands for the dopamine transporter” (J Med Chem, 2002).
